Results taken from patent US8466291B2, “1,5-dideoxy-1,5-imino-D-glucitol compounds” (Academia Sinica, priority 2008, dated 2013).

By UniProt entry, the sequences of proteins in these tests, tags left out. Residues count along the entry.
UniProt Q5L8V6, 1-739: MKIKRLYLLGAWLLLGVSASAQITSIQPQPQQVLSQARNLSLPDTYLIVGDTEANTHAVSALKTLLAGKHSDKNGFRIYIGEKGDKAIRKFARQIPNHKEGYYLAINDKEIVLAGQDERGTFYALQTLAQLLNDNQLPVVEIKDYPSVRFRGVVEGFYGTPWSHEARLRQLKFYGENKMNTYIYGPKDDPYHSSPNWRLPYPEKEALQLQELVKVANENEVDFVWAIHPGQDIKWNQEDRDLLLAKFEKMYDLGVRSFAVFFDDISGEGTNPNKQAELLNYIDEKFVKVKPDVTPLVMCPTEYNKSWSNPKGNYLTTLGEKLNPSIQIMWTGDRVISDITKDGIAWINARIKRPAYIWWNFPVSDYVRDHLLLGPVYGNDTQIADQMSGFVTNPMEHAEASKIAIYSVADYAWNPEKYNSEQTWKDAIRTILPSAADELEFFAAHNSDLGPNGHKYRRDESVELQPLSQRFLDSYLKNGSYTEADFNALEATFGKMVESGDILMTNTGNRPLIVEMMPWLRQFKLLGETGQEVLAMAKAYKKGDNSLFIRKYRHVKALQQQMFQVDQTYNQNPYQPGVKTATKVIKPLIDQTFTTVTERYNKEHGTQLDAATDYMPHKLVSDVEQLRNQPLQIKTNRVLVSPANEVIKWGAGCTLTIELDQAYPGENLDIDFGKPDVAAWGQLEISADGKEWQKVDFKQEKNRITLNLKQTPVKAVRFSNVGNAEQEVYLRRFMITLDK
UniProt O60502, whole entry: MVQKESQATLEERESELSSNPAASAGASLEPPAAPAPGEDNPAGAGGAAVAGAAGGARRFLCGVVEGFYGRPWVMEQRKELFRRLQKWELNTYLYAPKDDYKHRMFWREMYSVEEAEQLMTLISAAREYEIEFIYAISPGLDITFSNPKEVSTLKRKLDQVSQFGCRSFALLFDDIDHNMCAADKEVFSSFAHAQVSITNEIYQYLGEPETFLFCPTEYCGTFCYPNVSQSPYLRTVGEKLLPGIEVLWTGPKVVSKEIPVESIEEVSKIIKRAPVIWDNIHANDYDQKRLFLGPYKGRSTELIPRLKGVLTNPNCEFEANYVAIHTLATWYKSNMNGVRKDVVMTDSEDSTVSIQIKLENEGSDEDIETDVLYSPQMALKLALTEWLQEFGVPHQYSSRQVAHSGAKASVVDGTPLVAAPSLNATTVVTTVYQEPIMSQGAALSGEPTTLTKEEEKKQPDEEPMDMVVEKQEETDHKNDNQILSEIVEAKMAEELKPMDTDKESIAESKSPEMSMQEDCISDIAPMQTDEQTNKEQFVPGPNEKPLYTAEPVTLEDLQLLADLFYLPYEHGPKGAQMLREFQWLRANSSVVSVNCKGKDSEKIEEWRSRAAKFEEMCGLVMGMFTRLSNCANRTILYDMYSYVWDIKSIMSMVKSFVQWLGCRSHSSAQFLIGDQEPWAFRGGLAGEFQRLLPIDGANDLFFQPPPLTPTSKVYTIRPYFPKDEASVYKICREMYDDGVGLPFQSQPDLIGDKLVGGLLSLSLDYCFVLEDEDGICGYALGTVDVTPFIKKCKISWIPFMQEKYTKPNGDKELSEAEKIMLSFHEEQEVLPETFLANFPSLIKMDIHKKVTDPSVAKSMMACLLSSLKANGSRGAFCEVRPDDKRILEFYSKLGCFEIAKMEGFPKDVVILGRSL

Experiments:
[1] = target: Bacteroids fragilis O-GlcNAcase (Bacteroides fragilis, UniProt Q5L8V6); assay: Michaelis-Menten/Lineweaver-Burk kinetic inhibition of O-GlcNAcase with 4MU-NAG substrate; format: biochemical; conditions: Table 1
Human O-GlcNAcase = Human O-GlcNAcase (Homo sapiens, UniProt O60502); assay: Inhibition of human O-GlcNAcase; format: biochemical; conditions: Human O-GlcNAcase over human HEX B; Table 2
Description: Human O-GlcNAcase was also prepared and tested according to the procedures described in Gao et al., J. Biol. Chem. 2001, 276, 9838-9845 and Macauley et al., J. Am. Chem. Soc. 2005, 127, 17202-17203.

BV2 cells = assay: GM2 ganglioside level in BV2 cells by high performance thin-layer chromatography; conditions: 200 nM, 10 days, HPTLC
Description: Additionally, BV2 cells were treated with Compound 3 (200 nM), Compound ix (200 nM), or PUGNAc (200 nM) for 10 days. Glycosphingolipids (e.g., GM2) were extracted from the treated cells with chloroform/methanol and the ganglioside levels were determined by high performance thin-layer chromatography.

CC(=O)N[C@H]1CN[C@H](CO)[C@@H](O)[C@@H]1O
Selectivity (KI O-GlcNAcase/KI HEX) ([1]; Bacteroids fragilis O-GlcNAcase over human HEX B): 12
Ki ([1]; read-out: KI of O-GlcNAcase, Bacteroids fragilis O-GlcNAcase): 6.7 µM
Selectivity (KI O-GlcNAcase/KI HEX) (Human O-GlcNAcase): 43
GM2 level in treated cells (BV2 cells): only modestly increased
